In patent publication US7217527B2, “Assay for phosphodiesterase function” (Vanderbilt University, priority 2003, dated 2007):

Biological target: His-Tag PDE5 (Bos taurus, UniProt Q28156)
Assay: Specificity: effect of unlabeled compounds on [^3H]sildenafil binding to PDE5 (FIG. 3, FIG. 4)
Parameters: The full-length bovine PDE5 cDNA in BacPAK9 (Clontech) purified by QIAGEN was starting material; made in house; host or cells: Sf9 insect cells (baculovirus, Bac-to-Bac); species or system bovine
[1] = 6 nM [^3H]sildenafil, competitor at fourteen-fold excess ([…])

Molecule	effect on [^3H]sildenafil binding [1]	effect on [^3H]sildenafil binding	other results
Nc1nc2c(ncn2[C@@H]2O[C@H](COP(=O)(O)O)[C@@H](O)[C@H]2O)c(=O)[nH]1 [5′-GMP]			effect on [^3H]sildenafil binding (6 nM [^3H]sildenafil, competitor at 233,000-fold excess (1.4 mM)): no significant effect
CC(C)Cn1c(=O)n(C)c(=O)c2[nH]cnc21 [IBMX, 3-isobutyl-1-methylxanthine]			inhibition of [^3H]sildenafil binding (6 nM [^3H]sildenafil, 0.36 mM competitor): more than 90%
COC(=O)c1c(-c2cc(OC)c(OC)c(OC)c2)c2ccnc(OCc3ncccn3)c2c(=O)n1Cc1ccnc(C)c1 [T-0156]	strongly inhibitory		
Nc1nc2c(ncn2[C@@H]2O[C@@H]3COP(=O)(O)O[C@H]3[C@H]2O)c(=O)[nH]1 [cGMP]		partially inhibitory	
CN(C(=O)CCCOc1ccc2[nH]c(=O)ccc2c1)C1CCCCC1 [cilostamide]	no significant effect		
COc1ccc(C2CNC(=O)C2)cc1OC1CCCC1 (stereo not drawn) [rolipram]		no significant effect	
CCCc1nn(C)c2c(=O)[nH]c(-c3cc(S(=O)(=O)N4CCN(C)CC4)ccc3OCC)nc12 [sildenafil]		strongly inhibitory	
CCOC(=O)C1=C[C@]2(CC)CCCN3CCc4c(n1c1ccccc41)[C@@H]32 [vinpocetine]	no significant effect		
EHNA		no significant effect	

Read-outs that look alike come from different tables or passages of the source.
